Experimental findings from patent US9095560B2, “Method of enhancing transdermal absorption using a composition comprising POE octyl dodecyl ether and squalane” (JAPAN SCIENCE AND TECHNOLOGY AGENCY, priority 2005, dated 2015) are described below.

This data set is described as follows: Concentration of insulin in blood after application (Example 5). It is filed as in vivo, Wistar rats. Conditions: after the initial phase; FIG. 5. As to the method:
Lyotropic liquid crystal compounded with 0.5%, 1% and 3% (by weight) of insulin (the lyotropic liquid crystal itself was a product prepared by the step 2 of Example 1) was prepared and concentration of insulin in blood was measured by the same manner as in Example 1. As a comparative example, 0.2 mg/200 μL of insulin was hypodermically injected and concentration of insulin in blood was measured. Incidentally, (A) to (D) in FIG. 5 are as follows.

Consider insulin, for which the “concentration of insulin in blood thereafter” value is given as “quickly decreased”.
